Target: FLT3 (human), P36888 [ITD]
Assay: KINOMEscan competition binding

The chains behind the UniProt entries cited, without tags or fusion partners.
FLT3 (human), P36888, UniProt P36888, whole entry, looked up, stated change not applied: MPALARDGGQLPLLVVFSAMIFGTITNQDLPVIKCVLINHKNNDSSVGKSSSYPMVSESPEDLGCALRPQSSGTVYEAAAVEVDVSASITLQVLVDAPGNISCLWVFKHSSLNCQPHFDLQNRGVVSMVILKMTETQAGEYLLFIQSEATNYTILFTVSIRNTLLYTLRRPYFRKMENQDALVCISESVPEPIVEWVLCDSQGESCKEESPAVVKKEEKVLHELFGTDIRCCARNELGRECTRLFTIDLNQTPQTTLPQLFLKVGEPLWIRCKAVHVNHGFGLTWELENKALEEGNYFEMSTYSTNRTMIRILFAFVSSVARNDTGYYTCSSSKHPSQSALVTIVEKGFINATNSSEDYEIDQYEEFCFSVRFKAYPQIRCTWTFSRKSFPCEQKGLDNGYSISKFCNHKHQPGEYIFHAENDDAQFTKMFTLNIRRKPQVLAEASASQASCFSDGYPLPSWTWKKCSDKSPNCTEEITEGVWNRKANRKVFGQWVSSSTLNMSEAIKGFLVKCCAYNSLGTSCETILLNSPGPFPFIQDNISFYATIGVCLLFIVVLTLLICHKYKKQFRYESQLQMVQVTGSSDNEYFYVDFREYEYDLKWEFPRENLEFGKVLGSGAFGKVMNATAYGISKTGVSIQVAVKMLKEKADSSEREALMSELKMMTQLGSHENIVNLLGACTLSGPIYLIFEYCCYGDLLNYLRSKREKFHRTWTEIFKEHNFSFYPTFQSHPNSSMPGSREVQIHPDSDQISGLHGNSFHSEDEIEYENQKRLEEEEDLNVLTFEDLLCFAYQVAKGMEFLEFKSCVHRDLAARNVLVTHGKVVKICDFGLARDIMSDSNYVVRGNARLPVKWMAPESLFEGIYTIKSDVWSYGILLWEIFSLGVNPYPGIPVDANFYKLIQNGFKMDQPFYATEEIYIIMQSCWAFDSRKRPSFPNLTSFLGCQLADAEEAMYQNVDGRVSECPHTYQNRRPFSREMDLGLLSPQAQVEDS

## CO[C@@H]1[C@H](N(C)C(=O)c2ccccc2)C[C@H]2O[C@]1(C)n1c3ccccc3c3c4c(c5c6ccccc6n2c5c31)C(=O)NC4O (stereo partly specified)
  Kd: 43 nM
